Measurements taken from paper PMC5846726, “Characterization of the Mel1c melatoninergic receptor in platypus (Ornithorhynchus anatinus)” (PLoS ONE, 2018).

Biological target: T1, hMT2 (Homo sapiens, UniProt P49286)
T1 sequence (P49286 1-362): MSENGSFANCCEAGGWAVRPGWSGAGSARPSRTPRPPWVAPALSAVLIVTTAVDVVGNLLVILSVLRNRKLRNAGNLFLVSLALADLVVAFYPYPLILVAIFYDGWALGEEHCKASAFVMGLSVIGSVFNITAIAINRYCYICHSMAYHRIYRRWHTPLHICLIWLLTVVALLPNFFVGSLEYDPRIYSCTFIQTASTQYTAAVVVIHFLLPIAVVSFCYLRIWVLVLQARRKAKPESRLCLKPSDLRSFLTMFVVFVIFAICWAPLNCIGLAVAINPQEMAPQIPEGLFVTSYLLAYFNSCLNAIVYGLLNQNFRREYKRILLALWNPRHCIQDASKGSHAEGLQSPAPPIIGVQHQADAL
Assay: 2-[125I]-iodomelatonin competition binding, human MT2
Description: This approach has been described very often by our laboratory and others. […] The results were expressed as Ki, taking into account the concentration of radioligand used in each experiment. […] The reaction was stopped by rapid filtration through GF/B Unifilters, followed by three successive washes with ice-cold buffer. Data were analyzed by using the program PRISM (GraphPad Software Inc., San Diego, CA). For saturation assays, the density of binding sites (Bmax) and the dissociation constant of the radioligand (KD) were calculated according to the Scatchard method. […] A similar protocol was used when the binding was performed on whole cells, as described by Legros et al.. As per Plos One policy, all the raw data–listings from radioactivity counter are attached as raw files (Supplementary Tables A to M in S1 Data).

“(S)-N-(2-(1,6,7,8-tetrahydro-2H-indeno-(5,4)furan-8-yl)ethyl)propionamide [Ramelteon ®]” showed a hMT2 of 10.3.
